# Values of other authors, collected in patent publication US20200319191A1 (published 2020).
Compound,response by EGFR protein expression (non-small cell lung cancer patients overexpressing EGFR protein),"clinical benefit by AREG expression (overexpression of AREG, primary colorectal cancer, KRAS wildtype patients)","clinical outcome by EREG expression (overexpression of EREG, primary colorectal cancer, KRAS wildtype patients)",response by EGFR secondary mutation (T790M in exon 20),sensitivity by EGFR gain-of-function mutations (in-frame deletions in exon 19 or point mutations in exon 21)
cetuximab,patients overexpressing EGFR protein have been found to respond to the EGFR,increased clinical benefit from cetuximab in KRAS wildtype patients.,Overexpression of EREG in primary colorectal cancer patients has been related to clinical,–,–
COc1cc2ncnc(Nc3ccc(F)c(Cl)c3)c2cc1OCCCN1CCOCC1 [gefitinib],–,–,–,"mutation, T790M in exon 20, confers reduced response. Non-small cell lung cancer cancer","point mutations in exon 21, confer sensitivity to first- and second-generation tyrosine"
